The target in the test is IDO (Homo sapiens, UniProt P14902). The experiment in a line: LLE_IDO_ABS_DR (IDO assay). Particulars: read-out: LLE_IDO_ABS_DR (IC50).

Sequences of proteins named here, by UniProt entry; tags and fusion partners are left off.
UniProt P14902, whole entry: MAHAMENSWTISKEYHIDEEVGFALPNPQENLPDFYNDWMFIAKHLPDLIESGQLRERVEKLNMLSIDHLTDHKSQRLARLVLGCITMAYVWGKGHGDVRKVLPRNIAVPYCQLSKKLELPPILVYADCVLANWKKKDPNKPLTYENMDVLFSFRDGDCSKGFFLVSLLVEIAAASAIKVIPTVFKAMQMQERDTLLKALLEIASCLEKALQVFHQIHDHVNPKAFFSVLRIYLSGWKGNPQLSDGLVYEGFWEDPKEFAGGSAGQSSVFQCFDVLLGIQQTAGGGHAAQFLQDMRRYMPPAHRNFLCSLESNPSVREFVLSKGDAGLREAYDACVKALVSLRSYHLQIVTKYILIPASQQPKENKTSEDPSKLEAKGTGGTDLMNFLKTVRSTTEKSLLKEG

The structures appear in SMILES notation.

For orientation: IC50 means the point on the concentration scale where inhibition reaches its midpoint. As to `Cc1ccc(NC(=O)Nc2cc(-c3ccccc3C(=O)NS(=O)(=O)C3CC3)ccc2N(CC(C)C)CC(C)C)cc1`, the IC50 was 810 nM.

The record behind these values is US9758492B2, “IDO inhibitors” (Bristol-Myers Squibb Company, priority 2013, dated 2017).
